Values of other authors as cited in patent US20200239921A1, “CHEMOENZYMATIC SYNTHESIS OF S-NUCLEOSYL AMINO ACIDS (SNA), ANALOGS OF S-ADENOSYL-L-METHIONINE AND S-ADENOSYL-L- HOMOCYSTEINE AND USES THEREOF” (ALBERT EINSTEIN COLLEGE OF MEDICINE, priority 2016, published 2020).

Chains of the proteins cited; added tags and fusions are not shown. Lines headed by an entry give the natural chain unless they say otherwise; changes in a name come on top.
UniProt Q8TEK3: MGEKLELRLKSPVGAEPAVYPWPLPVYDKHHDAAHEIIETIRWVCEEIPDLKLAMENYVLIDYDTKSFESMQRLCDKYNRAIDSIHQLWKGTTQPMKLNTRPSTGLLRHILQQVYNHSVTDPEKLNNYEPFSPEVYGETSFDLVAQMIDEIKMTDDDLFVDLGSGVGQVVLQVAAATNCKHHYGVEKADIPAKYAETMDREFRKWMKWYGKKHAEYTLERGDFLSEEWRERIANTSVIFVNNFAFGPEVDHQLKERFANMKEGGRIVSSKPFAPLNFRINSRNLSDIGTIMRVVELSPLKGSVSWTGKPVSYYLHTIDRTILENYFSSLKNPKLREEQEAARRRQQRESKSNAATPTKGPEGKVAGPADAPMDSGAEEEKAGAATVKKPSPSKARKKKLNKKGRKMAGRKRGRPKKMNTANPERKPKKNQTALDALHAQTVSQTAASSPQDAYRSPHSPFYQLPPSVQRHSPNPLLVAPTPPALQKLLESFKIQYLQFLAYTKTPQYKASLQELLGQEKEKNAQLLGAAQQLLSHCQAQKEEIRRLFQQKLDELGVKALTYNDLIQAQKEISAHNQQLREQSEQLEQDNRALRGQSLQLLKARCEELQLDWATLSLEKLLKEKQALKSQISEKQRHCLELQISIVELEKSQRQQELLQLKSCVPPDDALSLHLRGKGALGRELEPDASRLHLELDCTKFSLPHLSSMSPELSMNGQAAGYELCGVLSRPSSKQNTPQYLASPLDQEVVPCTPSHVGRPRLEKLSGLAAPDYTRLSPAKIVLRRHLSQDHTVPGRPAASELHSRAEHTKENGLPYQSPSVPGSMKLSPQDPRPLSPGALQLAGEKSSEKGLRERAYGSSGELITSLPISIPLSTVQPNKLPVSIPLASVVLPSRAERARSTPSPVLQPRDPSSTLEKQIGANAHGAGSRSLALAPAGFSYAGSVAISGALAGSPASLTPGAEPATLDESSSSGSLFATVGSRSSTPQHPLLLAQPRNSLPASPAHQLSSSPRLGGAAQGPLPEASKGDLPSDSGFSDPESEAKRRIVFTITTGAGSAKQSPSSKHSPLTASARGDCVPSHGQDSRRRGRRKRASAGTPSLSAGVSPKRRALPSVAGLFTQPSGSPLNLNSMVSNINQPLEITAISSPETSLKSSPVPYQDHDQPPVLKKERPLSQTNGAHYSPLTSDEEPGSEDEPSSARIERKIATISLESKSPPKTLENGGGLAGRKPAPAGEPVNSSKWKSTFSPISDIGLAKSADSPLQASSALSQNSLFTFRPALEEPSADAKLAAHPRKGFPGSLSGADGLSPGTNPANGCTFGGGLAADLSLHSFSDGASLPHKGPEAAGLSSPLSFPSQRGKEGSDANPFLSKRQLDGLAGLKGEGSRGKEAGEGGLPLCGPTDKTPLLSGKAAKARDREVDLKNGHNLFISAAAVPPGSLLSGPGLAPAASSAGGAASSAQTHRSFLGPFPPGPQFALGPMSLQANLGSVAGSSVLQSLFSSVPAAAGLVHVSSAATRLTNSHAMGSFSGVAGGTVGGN

Biological target: human Dot1L (Homo sapiens, UniProt Q8TEK3)
Details: from Ki, FIG. 2 second row in table; cited from earlier work

For `CNc1ncnc2c1ncn2[C@@H]1O[C@H](CSCC[C@H](N)C(=O)O)[C@@H](O)[C@H]1O` [N6-methyl SAH], the “selectivity for Dot1L over CARM1” value is given as 350 fold and the “selectivity for Dot1L over PRMT1” value is given as 80 fold.
